Laboratory results from patent US20130274212A1, “Sesterterpene Compounds and Use Thereof” (SNU R&DB FOUNDATION, priority 2010, published 2013).

Amino acid sequences for entries named in this document (tags omitted). Residues count along the entry.
UniProt Q06219, 360-598 limits assumed: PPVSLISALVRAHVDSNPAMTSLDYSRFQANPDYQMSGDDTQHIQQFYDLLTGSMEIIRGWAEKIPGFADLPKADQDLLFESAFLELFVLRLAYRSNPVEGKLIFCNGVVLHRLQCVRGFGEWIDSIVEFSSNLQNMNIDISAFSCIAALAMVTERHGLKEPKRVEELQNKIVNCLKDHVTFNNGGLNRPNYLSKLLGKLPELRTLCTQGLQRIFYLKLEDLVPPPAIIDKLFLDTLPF

Assays:
Nurr1 = Nurr1 (Mus musculus, UniProt Q06219); assay: GAL-mNurr1 luciferase reporter transfection assay in CV-1 cells; conditions: read-out: EC50 value on Nurr1, GAL-mNurr1, luciferase corrected by β-galactosidase, 24 hours
Procedure: (§1) Animal cell line CV-1 was used in transfection search. Cells were cultured in DMEM medium within a cell incubator containing 5% carbon dioxide at 37° C. The medium contained 10% fetal bovine serum (FBS), 100 U/ml penicillin, and 100 μg/ml streptomycin. On day 1 of the experiment, CV1 cells were seeded in a 96-well plate at 5,000 cells/well. On day 2, the seeded cells were transfected with plasmid expressing GAL-mNurr1, plasmid expressing luciferase gene, and plasmid expressing β-galactosidase by using a transfection reagent, Superfect (QIAGEN). After 16 hours, the transfected cells were treated with compounds of Chemical Formula I dissolved in dimethylsulfoxide (DMSO) by the concentrations. Cells treated with dimethylsulfoxide having the final concentration of 1% were used as a negative control group. After culturing for 24 hours, the cells were lysed by using a lysis buffer, and luciferin was added thereto to measure the luciferase activity by a luminometer. After addition of an ONPG reagent, β-galactosidase activity was measured by an ELISA reader. The measured luciferase value was corrected by the activity value of β-galactosidase. […] Accordingly, it was verified that the compounds of Chemical Formula I were compounds selective to Nurr1.

LXR = assay: GAL-hLXRa or GAL-hLXRB luciferase reporter antagonist assay in CV-1 cells; conditions: read-out: IC50 value on LXR, LXR agonist T0901517 500 nM
Procedure: as §1, with “expressing GAL-hLXRa or GAL-hLXRB,” for “expressing GAL-mNurr1,”, “expressing β-galactosidase,” for “expressing β-galactosidase”, “the concentrations (here, the final concentration of the LXR agonist, T0901517, was 500 nM).” for “the concentrations.”, “I are antagonist” for “I were”, “to LXR.” for “to Nurr1.”

[1] = system: various nuclear receptors (RXR, PPAR, PXR, CAR, ER, LRH-1, GR, NGFI-B, ERR, Rev-erb, GCNF, TR, HNF4, COUP, EAR, VDR, AR, DAX-1, TLX, and VDR); assay: Selectivity: activity on various other nuclear receptors, same reporter method; conditions: CV-1 cells, same method as Nurr1
Procedure: as §1

[2] = system: C57BL/6 mice administered with MPTP; assay: MPTP-induced Parkinson's disease mice, Rotarod exercise capacity; conditions: oral 5 mg/kg once per day for 5 days before MPTP 25 mg/kg; measured after 3 days
Excerpt: In the present example, in order to verify efficacy to prevent and treat Parkinson's Disease of the compound of Chemical Formula I according to the present invention in the Parkinson's Disease as one of neurodegenerative diseases, mice administered with 1-methyl-4-phenyl-1,2,3,6-tetrahydropyridine (MPTP) were used. The efficacy to prevent and treat the Parkinson's Disease was verified by administering the compound of Chemical Formula I (CMDD-X or Compound 7) to a Parkinson's Disease-induced disease model and then measuring exercise capacity of the mice. C57BL/6 mice (male, 12-week old) were used. The mice were adapted to a housing environment for 1 week while pellet type general diet was supplied, and then divided into 3 groups of 5 mice each to have similar body weights. Before MPTP administration, the compound CMDD-X was orally administered at a concentration of 5 mg/kg. After 3 hours, probenecid as MPTP efflux inhibitor was intraperitoneally administered to the mice at a concentration of 250 mg/kg, and, after 2 hours, 25 mg/kg of MPTP was intraperitoneally administered. Administration was conducted once per one day for a total of 5 days, and, after 3 days, exercise capacity of the mice was measured by using the Rotarod. […]

[3] = system: HUVEC endotheliocyte activated by TNF-α; assay: HUVEC endotheliocyte activated by TNF-α (qRT-PCR, Western)
Procedure: MCP-1, which is cytokine importantly involved in the atherosclerosis, is generated in the endotheliocyte to promote induction of monocytes into the inflammatory site and thus contributes to formation of atherosclerosis early lesions (Gerszten R E et al, NATURE, 1999, 718-723). HUVEC endotheliocytes were cultured in EGM-2 medium within a cell incubator containing 5% carbon dioxide at 37° C. One day before treatment with the compound CMDD-X, HUVEC endotheliocytes were seeded on a 6-well plate at 30,000 cells/well. The next day, the cells were pre-treated with compound CMDD-X, for 1 hour, by the concentrations, and then were treated with 10 ng/ml TNF-α for 6 hours, and the qRT-PCR was conducted.
VCAM-1, which is another important factor of atherosclerosis, mediates attachment of monocytes in the early first stage of atherosclerosis and is expressed at the edge of the lesion to be involved in the expansion of the lesion (Nakashima Y et al., Arterioscler Thromb Vasc Biol, 1998, 842-851). In order to verify efficacy of the compound CMDD-X on expression of the intercellular adhesion molecule gene (VCAM-1) in the HUVEC endotheliocytes and expression of protein, the samples were obtained by the same experiment and then qRT-PCR and Western experiments were conducted.

CC(C)=CCC/C(C)=C/[C@@H]1CC(C)=C[C@]2(C=C(CO)[C@H]3CC(=O)C(C)=C[C@H]3O2)O1
EC50 (Nurr1): 70 nM
IC50 (LXR): 20 nM
activity on the other nuclear receptors (selectivity) [1]: never showed activity on the other nuclear receptors
exercise capacity (Rotarod) [2]: recovered to a similar level to normal mice
expression of MCP-1 ([3]; 1 hour pre-treatment, 10 ng/ml TNF-α 6 hours, qRT-PCR, as concentration increased): significantly decreased
expression of VCAM-1 protein ([3]; TNF-α activated HUVEC, Western): significantly decreased
expression of VCAM-1 gene ([3]; TNF-α activated HUVEC, qRT-PCR): significantly decreased
